Chains of the proteins cited; added tags and fusions are not shown. Residues count along the entry.
UniProt P34969, 1-432: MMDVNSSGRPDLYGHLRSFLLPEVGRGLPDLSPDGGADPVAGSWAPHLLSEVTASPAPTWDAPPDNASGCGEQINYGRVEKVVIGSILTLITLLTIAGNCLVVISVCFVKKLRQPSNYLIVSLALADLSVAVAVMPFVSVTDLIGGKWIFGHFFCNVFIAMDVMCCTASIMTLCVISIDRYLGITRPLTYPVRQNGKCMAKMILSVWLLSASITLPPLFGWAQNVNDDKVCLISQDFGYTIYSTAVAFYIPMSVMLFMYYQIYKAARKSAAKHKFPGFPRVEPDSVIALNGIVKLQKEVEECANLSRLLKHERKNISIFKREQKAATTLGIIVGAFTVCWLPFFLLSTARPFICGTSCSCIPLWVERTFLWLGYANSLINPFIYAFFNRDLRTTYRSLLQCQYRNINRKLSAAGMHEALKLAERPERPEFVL
UniProt P34969, whole entry, looked up: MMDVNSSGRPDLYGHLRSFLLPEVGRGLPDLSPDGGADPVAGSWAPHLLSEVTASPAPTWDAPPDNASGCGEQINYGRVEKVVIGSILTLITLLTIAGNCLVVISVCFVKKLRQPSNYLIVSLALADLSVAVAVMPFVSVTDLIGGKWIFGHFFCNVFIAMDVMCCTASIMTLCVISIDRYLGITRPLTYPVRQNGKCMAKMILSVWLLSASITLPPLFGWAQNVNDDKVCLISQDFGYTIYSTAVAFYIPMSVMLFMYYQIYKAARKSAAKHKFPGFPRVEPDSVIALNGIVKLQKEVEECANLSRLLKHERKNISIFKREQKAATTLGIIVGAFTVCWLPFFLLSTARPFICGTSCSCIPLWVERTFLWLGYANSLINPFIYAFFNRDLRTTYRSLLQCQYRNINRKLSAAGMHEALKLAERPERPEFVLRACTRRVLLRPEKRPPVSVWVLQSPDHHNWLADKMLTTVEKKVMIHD

According to US20240199555A1, “APPLICATIONS OF BIASED LIGANDS OF THE SEROTONIN 5-HT7 RECEPTOR FOR THE TREATMENT OF PAIN, MULTIPLE SCLEROSIS AND THE CONTROL OF THERMOREGULATION” (Centre National de la Recherche Scientifique, priority 2021, published 2024):

Experiments:
Assay type in all cases: cell-based
[1] = biological target: T1, h5-HT7R (Homo sapiens (Human), UniProt P34969); assay: ERK1/2 and c-SRC phosphorylation by western blot in HEK-293 cells stably expressing h5-HT7R; conditions: 10 μM of ligand or increasing concentrations
Method: (A, B, C, D, E, F) Time course of activation of ERK1/2 after stimulation of HEK-293 cells stably expressing h5-HT7R with various 5-HT7R ligands used at 10 μM. The cells were stimulated for the indicated periods and assayed for detection of phospho ERK1/2 by western blot analysis. […] Representative blots of three independent experiments are illustrated. The histogram on the right of each panel represents the results of densitometric analyses of three independent experiments. Data are means±SEM. * p<0.05; ** p<0.01; *** p<0.001 versus non stimulated cells (NS).
HEK-293 cells stably expressing h5-HT7R were stimulated with increasing concentrations of 5-CT or Serodolin for 7 minutes. […] Quantification was performed by densitometric analyses from three independent experiments. Analyzed data were plotted versus log concentration for each compounds (A; B) or as bar graph (C) on the right panel. […]
Treated cells were washed twice with cold PBS and lysed on ice for 30 min in lysis buffer containing 50 mM Tris pH 7.5, 150 mM NaCl, 10 mM EDTA, 1% Triton X-100 and the protease inhibitor cocktail. […] Immunoreactive bands were detected using the Dura detection kit. Protein quantification on blots was performed using Quantity One software (Biorad). […]
ERK phosphorylation was monitored by western blotting after treatment of cells with 10 μM of ligands at different times ranging from 2 to 60 minutes.

[2] = biological target: T1, h5-HT7R; assay: cAMP accumulation (LANCE cAMP detection kit) in HEK-293 cells stably expressing h5-HT7R; conditions: tested alone
Method: (B) HEK-293 cells stably expressing h5-HT7R were stimulated with 10 nM of 5-CT and increasing concentrations of products for one hour. After cell lysis, cAMP production was quantified by a LANCE cAMP detection kit (Perkin Elmer). […] Data points represent the means±SEM from three independent experiments performed in triplicate. The EC50 and IC50 for each drug was determined using GraphPad Prism software.
cAMP accumulation was measured with a LANCE™ cAMP detection kit (Perkin-Elmer Life Sciences, Boston, MA, USA). 12 h before experiment cells were starved. Forty-eight h after transfection, cells were harvested in Hank's balanced salt solution (HBSS) containing 5 mM HEPES, 1 mM isobutylmethylxanthine (IBMX) and 0.1% BSA, PH 7.4. After centrifugation (1000×g, 5 min), cells were resuspended in the same buffer (2×10^6 per ml). The ALEXA™ fluor 647 anti-cAMP antibody solution (1 μl) was added to the cell suspension (100 μl) and 5 μl aliquots of the mixture were dispensed in white 384-well microtiter plates (Optiplate, Perkin Elmer). The cells were then stimulated with different drugs. […] After 2 h incubation at room temperature in the dark, the plates were read on a VictorV™ microplate reader (Perkin-Elmer Life Sciences). Concentration/response curves were analyzed using Prism 4 software. […]

[3] = biological target: 5-HT7(b) receptors (Homo sapiens, UniProt P34969); assay: BRET between 5-HT7-RLuc and Venus-mini G proteins (G protein recruitment)

SMILES: CC1CCN(CC[C@H]2CCCN2S(=O)(=O)c2cccc(O)c2)CC1 [SB269970, reference compound]
- induction of ERK phosphorylation [1]: none of them were able to induce ERK activation
- effect on cAMP response [2]: inverse agonist effects on cAMP response
- Gαs recruitment ([3]; mGs BRET): behaved as inverse for Gαs recruitment
- Gαi, Ga12 or Gαq recruitment ([3]; mGsi, mG12, mGsq BRET): neither classical (5-CT, SB 269970) nor biased 5-HT7R ligands (Serodolin) were able to induce the Gαi, Ga12 or Gαq recruitment
